From patent publication US20060040868A1, “Methods for treating premature infants” (priority 2004, published 2006)

Tested on: M-17 neuroblastoma cells
Assay: growth of cultured M-17 neuroblastoma cells
Assay type: cell-based
Conditions: unpublished observations (Bowen et al.)
From the text: Evidence supporting a role for FSH, LH, and hCG in driving cell proliferation includes the following: 1) FSH is associated with granulosa cell proliferation (El-Heffiawy T, Zeleznik A J. Synergism between FSH and activin in the regulation of proliferating cell nuclear antigen (PCNA) and cyclin D2 expression in rat granulosa cells. Endocrinology 142:4357-4362, 2001); 2) hCG directly promotes the proliferation of myometrial and leiomyomal cells (Horiuchi A et al. HCG promotes proliferation of uterine leiomyomal cells more strongly than that of myometrial smooth muscle cells in vitro. […] Gynecology and Endocrinology 13:75-81, 1999); 4) one study also has shown that LH stimulates the growth of chondrocytes (cartilage cells) in rabbit epiphyseal growth plates (Webber R J, Sokoloff L. In vitro culture of rabbit growth plate chondrocytes: 1. […] The mechanism by which these hormones exert their mitogenicity is likely via signaling through the insulin/IGF pathway that converges on FKHR (human homolog of daf-16), phosphorylation of which stimulates mitosis (Richards, J S, Sharma, S C, Falender, A E, Lo, Y H. Expression of FKHR, FKHRL1, and AFX genes in the rodent ovary: evidence for regulation by IGF-I, estrogen, and the gonadotropins. Molecular Endocrinology 16, 580-599, 2002). […]

LH: pituitary gonadotropin glycoprotein hormone, heterodimer of a common α-subunit with a unique β-subunit
growth of cultured M-17 neuroblastoma cells: induced
